In this assay the test system is SKBR3 tumor xenograft. Description: SKBR3 xenograft mouse model, antitumor study. The assay is classed as in vivo, BALB/c nude mice. The settings on record: 8 mg/kg i.p.; followed until Day 24.

Experimental findings from article PMC8463277 (Acta Pharmaceutica Sinica. B, 2021) are described below.

In the case of trastuzumab, the “tumor volume after the last drug injection on Day 12” value was “significant reduction in tumor volume”.
